# In paper PMC12102759 (Protein Science : A Publication of the Protein Society, 2025):
# Tested on: AP2M1 MU
# Assay type: binding, human
row,Sequence,PSSM value of the substitution (DMS by phage display)
1,QVVSDIDYVPLKSATA S13R (QVVSDIDYVPLKRATA),0
2,QVVSDIDYVPLKSATA S13S,0.00214
3,QVVSDIDYVPLKSATA S13T (QVVSDIDYVPLKTATA),3.432e-5
4,QVVSDIDYVPLKSATA S13V (QVVSDIDYVPLKVATA),6.609e-5
5,QVVSDIDYVPLKSATA S13W (QVVSDIDYVPLKWATA),0.01244
6,QVVSDIDYVPLKSATA S13Y (QVVSDIDYVPLKYATA),6.609e-5
7,QVVSDIDYVPLKSATA T15A (QVVSDIDYVPLKSAAA),0.002863
8,QVVSDIDYVPLKSATA T15D (QVVSDIDYVPLKSADA),0.002432
9,QVVSDIDYVPLKSATA T15E (QVVSDIDYVPLKSAEA),0.0006744
10,QVVSDIDYVPLKSATA T15F (QVVSDIDYVPLKSAFA),0.001169
11,QVVSDIDYVPLKSATA T15G (QVVSDIDYVPLKSAGA),0.0008526
12,QVVSDIDYVPLKSATA T15H (QVVSDIDYVPLKSAHA),0.5033
13,QVVSDIDYVPLKSATA T15I (QVVSDIDYVPLKSAIA),0
14,QVVSDIDYVPLKSATA T15K (QVVSDIDYVPLKSAKA),0
15,QVVSDIDYVPLKSATA T15L (QVVSDIDYVPLKSALA),0.002355
16,QVVSDIDYVPLKSATA T15M (QVVSDIDYVPLKSAMA),0.3725
17,QVVSDIDYVPLKSATA T15N (QVVSDIDYVPLKSANA),0
18,QVVSDIDYVPLKSATA T15P (QVVSDIDYVPLKSAPA),0.001757
19,QVVSDIDYVPLKSATA T15Q (QVVSDIDYVPLKSAQA),0
20,QVVSDIDYVPLKSATA T15R (QVVSDIDYVPLKSARA),0
21,QVVSDIDYVPLKSATA T15S (QVVSDIDYVPLKSASA),0.04411
22,QVVSDIDYVPLKSATA T15T,0.02158
23,QVVSDIDYVPLKSATA T15V (QVVSDIDYVPLKSAVA),0
24,QVVSDIDYVPLKSATA T15W (QVVSDIDYVPLKSAWA),0.04319
25,QVVSDIDYVPLKSATA T15Y (QVVSDIDYVPLKSAYA),0.003284

row,Sequence,PSSM value of the substitution (DMS by phage display)
1,QVVSDIDYVPLKSATA V2A (QAVSDIDYVPLKSATA),0.000765
2,QVVSDIDYVPLKSATA V2D (QDVSDIDYVPLKSATA),0
3,QVVSDIDYVPLKSATA V2E (QEVSDIDYVPLKSATA),0
4,QVVSDIDYVPLKSATA V2F (QFVSDIDYVPLKSATA),0.4936
5,QVVSDIDYVPLKSATA V2G (QGVSDIDYVPLKSATA),0
6,QVVSDIDYVPLKSATA V2H (QHVSDIDYVPLKSATA),0.2203
7,QVVSDIDYVPLKSATA V2I (QIVSDIDYVPLKSATA),0.1139
8,QVVSDIDYVPLKSATA V2K (QKVSDIDYVPLKSATA),0
9,QVVSDIDYVPLKSATA V2L (QLVSDIDYVPLKSATA),0.007947
10,QVVSDIDYVPLKSATA V2M (QMVSDIDYVPLKSATA),0.002348
11,QVVSDIDYVPLKSATA V2N (QNVSDIDYVPLKSATA),0.001346
12,QVVSDIDYVPLKSATA V2P (QPVSDIDYVPLKSATA),0.005944
13,QVVSDIDYVPLKSATA V2Q (QQVSDIDYVPLKSATA),0
14,QVVSDIDYVPLKSATA V2R (QRVSDIDYVPLKSATA),0.0006615
15,QVVSDIDYVPLKSATA V2S (QSVSDIDYVPLKSATA),0.002909
16,QVVSDIDYVPLKSATA V2T (QTVSDIDYVPLKSATA),0.001139
17,QVVSDIDYVPLKSATA V2V,0.02883
18,QVVSDIDYVPLKSATA V2W (QWVSDIDYVPLKSATA),0.1203
19,QVVSDIDYVPLKSATA V2Y (QYVSDIDYVPLKSATA),0
20,QVVSDIDYVPLKSATA V3A (QVASDIDYVPLKSATA),0
21,QVVSDIDYVPLKSATA V3D (QVDSDIDYVPLKSATA),0.0002899
22,QVVSDIDYVPLKSATA V3E (QVESDIDYVPLKSATA),0.02236
23,QVVSDIDYVPLKSATA V3F (QVFSDIDYVPLKSATA),0.001289
24,QVVSDIDYVPLKSATA V3G (QVGSDIDYVPLKSATA),0.001029
25,QVVSDIDYVPLKSATA V3H (QVHSDIDYVPLKSATA),0.8492

row,Sequence,PSSM value of the substitution (DMS by phage display)
1,QVVSDIDYVPLKSATA V3I (QVISDIDYVPLKSATA),0.09709
2,QVVSDIDYVPLKSATA V3K (QVKSDIDYVPLKSATA),0
3,QVVSDIDYVPLKSATA V3L (QVLSDIDYVPLKSATA),0
4,QVVSDIDYVPLKSATA V3M (QVMSDIDYVPLKSATA),0
5,QVVSDIDYVPLKSATA V3N (QVNSDIDYVPLKSATA),0.0005799
6,QVVSDIDYVPLKSATA V3P (QVPSDIDYVPLKSATA),0.007805
7,QVVSDIDYVPLKSATA V3Q (QVQSDIDYVPLKSATA),0.000395
8,QVVSDIDYVPLKSATA V3R (QVRSDIDYVPLKSATA),0
9,QVVSDIDYVPLKSATA V3S (QVSSDIDYVPLKSATA),0.00118
10,QVVSDIDYVPLKSATA V3T (QVTSDIDYVPLKSATA),0.002843
11,QVVSDIDYVPLKSATA V3V,0.01264
12,QVVSDIDYVPLKSATA V3W (QVWSDIDYVPLKSATA),0.003269
13,QVVSDIDYVPLKSATA V3Y (QVYSDIDYVPLKSATA),0
14,QVVSDIDYVPLKSATA V9A (QVVSDIDYAPLKSATA),0.00865
15,QVVSDIDYVPLKSATA V9D (QVVSDIDYDPLKSATA),0
16,QVVSDIDYVPLKSATA V9E (QVVSDIDYEPLKSATA),0.5702
17,QVVSDIDYVPLKSATA V9F (QVVSDIDYFPLKSATA),0.1527
18,QVVSDIDYVPLKSATA V9G (QVVSDIDYGPLKSATA),0
19,QVVSDIDYVPLKSATA V9H (QVVSDIDYHPLKSATA),0.1369
20,QVVSDIDYVPLKSATA V9I (QVVSDIDYIPLKSATA),0.006015
21,QVVSDIDYVPLKSATA V9K (QVVSDIDYKPLKSATA),0.01324
22,QVVSDIDYVPLKSATA V9L (QVVSDIDYLPLKSATA),0
23,QVVSDIDYVPLKSATA V9M (QVVSDIDYMPLKSATA),0
24,QVVSDIDYVPLKSATA V9N (QVVSDIDYNPLKSATA),0
25,QVVSDIDYVPLKSATA V9P (QVVSDIDYPPLKSATA),0

row,Sequence,PSSM value of the substitution (DMS by phage display)
1,QVVSDIDYVPLKSATA V9Q (QVVSDIDYQPLKSATA),0.002905
2,QVVSDIDYVPLKSATA V9R (QVVSDIDYRPLKSATA),0
3,QVVSDIDYVPLKSATA V9S (QVVSDIDYSPLKSATA),0
4,QVVSDIDYVPLKSATA V9T (QVVSDIDYTPLKSATA),0
5,QVVSDIDYVPLKSATA V9V,0.1095
6,QVVSDIDYVPLKSATA V9W (QVVSDIDYWPLKSATA),0
7,QVVSDIDYVPLKSATA V9Y (QVVSDIDYYPLKSATA),0
8,QVVSDIDYVPLKSATA Y8A (QVVSDIDAVPLKSATA),0
9,QVVSDIDYVPLKSATA Y8D (QVVSDIDDVPLKSATA),0
10,QVVSDIDYVPLKSATA Y8E (QVVSDIDEVPLKSATA),0
11,QVVSDIDYVPLKSATA Y8F (QVVSDIDFVPLKSATA),0
12,QVVSDIDYVPLKSATA Y8G (QVVSDIDGVPLKSATA),0
13,QVVSDIDYVPLKSATA Y8H (QVVSDIDHVPLKSATA),0
14,QVVSDIDYVPLKSATA Y8I (QVVSDIDIVPLKSATA),0
15,QVVSDIDYVPLKSATA Y8K (QVVSDIDKVPLKSATA),0
16,QVVSDIDYVPLKSATA Y8L (QVVSDIDLVPLKSATA),0
17,QVVSDIDYVPLKSATA Y8M (QVVSDIDMVPLKSATA),0
18,QVVSDIDYVPLKSATA Y8N (QVVSDIDNVPLKSATA),0
19,QVVSDIDYVPLKSATA Y8P (QVVSDIDPVPLKSATA),0
20,QVVSDIDYVPLKSATA Y8Q (QVVSDIDQVPLKSATA),0
21,QVVSDIDYVPLKSATA Y8R (QVVSDIDRVPLKSATA),0
22,QVVSDIDYVPLKSATA Y8S (QVVSDIDSVPLKSATA),0
